Laboratory results published in ChEMBL document CHEMBL1125016, “Synthesis and evaluation of N-substituted cis-N-methyl-2-(1-pyrrolidinyl)cyclohexylamines as high affinity sigma receptor ligands. Identification of a new class of highly potent and selective sigma receptor probes” (1990).

Protein sequences, listed by entry. Tags and fused reporters are not part of them. Lines headed by an entry give the natural chain unless they say otherwise; changes in a name come on top.
UniProt P41144: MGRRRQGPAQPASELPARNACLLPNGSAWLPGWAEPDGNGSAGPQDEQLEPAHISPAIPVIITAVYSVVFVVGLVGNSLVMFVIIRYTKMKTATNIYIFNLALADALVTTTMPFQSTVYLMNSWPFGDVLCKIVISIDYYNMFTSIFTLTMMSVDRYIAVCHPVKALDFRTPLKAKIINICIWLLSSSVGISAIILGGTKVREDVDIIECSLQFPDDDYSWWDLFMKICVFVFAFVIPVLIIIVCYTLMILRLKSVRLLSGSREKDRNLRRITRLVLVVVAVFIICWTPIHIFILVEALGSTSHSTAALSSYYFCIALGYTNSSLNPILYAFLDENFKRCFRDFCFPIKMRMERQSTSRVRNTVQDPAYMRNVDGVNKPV

How the values were obtained:
[1] = target: Kappa-type opioid receptor (Cavia porcellus) (UniProt P41144); test: Binding affinity against opioid receptor kappa 1 using [3H]U-69593 as a radioligand
[2] = target: Kappa-type opioid receptor (Cavia porcellus) (UniProt P41144); test: Binding affinity against opioid receptor kappa 1 using with [3H]bremazocine as radioligand

| SMILES | Control [1] [%] | Control [2] [%] |
| --- | --- | --- |
| CN(C(=O)Cc1cccs1)[C@H]1CCCC[C@H]1N1CCCC1 | 84.6 | 106 |
| CN(CCc1ccc(Cl)c(Cl)c1)C1CCCCC1N1CCCC1 (stereo not given) | 79 | 99.2 |
| CN(CCc1ccc2ccccc2c1)[C@H]1CCCC[C@H]1N1CCCC1 | 91.5 | 86.5 |
| CN(C(=O)Cc1ccc(Cl)c(Cl)c1)[C@@H]1CCCC[C@@H]1N1CCCC1 | 9.6 | 96.2 |
| CN([C@H]1CCCC[C@H]1N1CCCC1)S(=O)(=O)c1ccccc1 | 98.5 | 106 |
